US20190127366A1 (LifeSci Pharmaceuticals, Inc., priority 2015, published 2019)

Chains of the proteins cited; added tags and fusions are not shown. Residues count along the entry.
UniProt P00746, 26-253 limits assumed: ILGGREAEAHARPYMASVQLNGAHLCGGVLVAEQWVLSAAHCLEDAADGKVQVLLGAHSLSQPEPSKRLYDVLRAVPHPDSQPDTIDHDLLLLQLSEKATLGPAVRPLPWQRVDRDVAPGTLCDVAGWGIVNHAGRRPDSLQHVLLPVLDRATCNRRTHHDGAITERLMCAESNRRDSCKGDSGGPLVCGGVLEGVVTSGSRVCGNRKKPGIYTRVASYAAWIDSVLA

What follows are compounds tested against human complement factor D (Homo sapiens, UniProt P00746) (assay: In vitro enzyme inhibition (Z-Lys-SBzl/DTNB absorbance assay)). Conditions: read-out: CFD IC50; Complement Factor D (R&D Systems), substrate Z-Lys-SBzl, A405 nm.
Protocol: The ability of the compounds disclosed herein to inhibit human complement factor D inhibitory activity was quantified according to the 12-step protocol provided below. • 1. Prepare assay buffer: 50 mM Tris/HCl, pH 7.5, 1 M NaCl. • 2. Dilute 10 mM Complement Factor D inhibitor Nafamostat Mesilate (Selleckchem, Catalog #S1386) solution from 10000 μM to 9.77 μM in 100% DMSO, 8 concentrations. Then dilute the serial concentrations of Nafamostat Mesilate 20-fold in assay buffer. • 3. Add 10 μl diluted Nafamostat Mesilate duplicated into each of the inhibitor control well of a 96-well plate (Corning, Catalog #3599). Final concentrations were 50 μM, 25 μM, 12.5 μM, 6.25 μM, 3.125 μM, 0.781 μM, 0.195 μM and 0.049 μM. 0.5% DMSO was in each well finally. • 4. Dilute 20 mM test compounds from 10000 μM to […] in 100% DMSO, 6-fold dilution, 8 concentrations. Then dilute the serial concentrations of test compounds 20-fold in assay buffer. • 5. Add 10 μl diluted test compounds duplicated into the 96-well plate. Final concentrations were 50 μM, 8.33 μM, 1.39 μM, 0.23 μM, 0.0386 μM, 0.0064 μM, 0.0011 μM and 0.0002 μM. 0.5% DMSO was in each well finally. • 6. Dilute 20 mM substrate Z-Lys-SBzl (Bachem, Cat #M-1300) to 200 μM in assay buffer with 200 μM DTNB(Sigma, Catalog #D8130). • 7. Dilute 738 ng/μL Complement Factor D (R&D Systems, Catalog #1824-SE) to 6.25 ng/μL in assay buffer. Add 40 μl diluted Complement Factor D in the 96-well plate. • 8. Positive control well contains Complement Factor D without test compound. Negative control well contains neither Complement Factor D nor test compound. Using assay buffer, bring the total volume of all controls to 50 μl. • 9. Pre-incubate the plate for 5 min at room temperature. • 10. Add 50 μl of diluted substrate/DTNB mixture into each well. Mix the reagents completely by shaking the plate gently for 30 sec. • 11. For kinetic reading: Immediately start measuring absorbance (A405 nm) continuously and record data every 30sec for 60 min. • 12. Data analysis • Inhibition activity of compound was evaluated by IC50. IC50 was calculated according the dose-response curve of compound fitted using GraphPadPrism with “log(inhibitor)-response (variable slope)” equation. • % inhibition was calculated by using following equation:
[formula] • Mean(NC): The average value of the negative control wells' A405 nm values. • Mean(PC): The average value of the positive control wells' A405 nm values.
The ability of the compounds in Table 2 to inhibit human complement factor D inhibitory activity was determined.

| SMILES | IC50 |
| --- | --- |
| NC(=O)c1nn(CC(=O)N2[C@@H]3CC[C@@H](C3)[C@H]2C(=O)Nc2cccc(Cl)c2F)c2ccc(C3CC3)cc12 | 1 to 10 µM |
| NC(=O)c1nc(CC(=O)N2[C@@H]3CC[C@@H](C3)[C@H]2C(=O)NCc2cccc(Cl)c2F)n2ccccc12 | 1 to 10 µM |
| NC(=O)c1nn(CC(=O)N2[C@@H]3CC[C@@H](C3)[C@H]2C(=O)Nc2cccc(OC(F)(F)F)c2F)c2ccc(C3CC3)cc12 | 1 to 10 µM |
| NC(=O)c1nn(CC(=O)N2[C@@H]3CC[C@@H](C3)[C@H]2C(=O)NC(C(N)=O)c2cccc(Cl)c2F)c2ccccc12 (stereo partly shown) | 1 to 10 µM |
